Measured values from patent US20220291203A1, “METHODS OF MEASURING CELL-MEDIATED KILLING BY EFFECTORS” (IMMUNOWAKE INC., priority 2019, published 2022).

Assays:
Assay type in all cases: cell-based, human
[1] = test system: dual reporter SK-BR-3 cells; experiment: Herceptin ADCC by NK92 cells, snLuciferase readout (Example 4); details: NK92 effector cells, E:T 3:1; 8 hours incubation, snLuciferase 24 hours after doxycycline
Protocol: 15,000 NK92 cells (effector cells) and 5,000 dual reporter SK-BR-3 cells (breast cancer tumor cells) as constructed in Example 2 were plated in a 96-well conical bottom plate, resulting in a 3:1 effector cell to tumor cell ratio. […] Control wells were not provided with Herceptin®. The cell-killing reaction was incubated for 8 hours. After the 8 hours incubation, doxycycline was added to the cell mixture to induce expression of the dual reporters from remaining dual reporter SK-BR-3 cells. 24 hours after doxycycline induction, snLuciferase was measured using a GloMax Discover Microplate Reader. Percent cell survival was calculated as the ratio of relative light unit (RLU) in Herceptin®-containing wells to the RLU in the Herceptin®-free control wells.

[2] = test system: dual reporter SK-BR-3 cells; experiment: Herceptin ADCC by NK92 cells, GFP readout (Example 5); details: NK92, E:T 3:1; 10 ng/mL-0.31 ng/mL; 8-hour incubation, GFP 24 hours after doxycycline
Protocol: 15,000 NK92 cells (effector cells) and 5,000 dual reporter SK-BR-3 cells (tumor cells) as constructed in Example 2 were plated in a 96-well conical bottom plate, resulting in a 3:1 effector cell to tumor cell ratio. […] The cell killing reaction was incubated for 8 hours. After 8-hour incubation, doxycycline was added to the mixture of cells to induce expression of the dual reporters from remaining dual reporter SK-BR-3 cells. 24 hours after doxycycline induction, the tumor cells were analyzed using a Nikon Ellipse TE2000-U microscope for GFP, and snLuciferase was measured using a GloMax Discover Microplate Reader. The GFP signal was quantified using ImageJ. Percent cell survival was calculated as the ratio of corrected total cell fluorescence (CTCF) in Herceptin®-containing wells to the CTCF in the Herceptin®-free control wells.

[3] = test system: dual reporter MCF-7 cells; experiment: Antibody-mediated killing by unstimulated PBMCs (Example 6); details: normal HER2 expression, 200-0.0128 ng/mL
Protocol: (§1) Dual reporter tumor cell lines SK-BR-3 (high HER2 expression), LnCaP (intermediate HER2 expression), MDA-MB-231 (low HER2 expression), MCF-7 (normal HER2 expression similar to healthy tissue cells), and MDA-MB-468 (no HER2 expression) as constructed in Example 3 expressing various amounts of HER2 antigen were plated into wells of a %-well conical bottom plate at 5,000 tumor cells/well in the presence of 5,000 or 50,000 unstimulated PBMCs (effector cells), resulting in a 1:1 or 1:10 ratio of tumor cells to effector cells. […] Control wells were not provided with antibodies. The cell-killing reaction was incubated for 48 hours. After 48-hour incubation, doxycycline was added to the mixture of cells to induce expression of the dual reporters from live dual reporter tumor cells. 24 hours after doxycycline induction, cell culture media was taken, and luminescence was monitored on a GloMax Discover Microplate Reader. The dose-response curves were generated from two replicate measurements. As shown in FIGS. 7A-7D, cell killing responses based on the methods of the disclosure is dependent on type of antibody used, dose of the antibody, antigen expression level of the tumor cells, and the effector to target ratio.

[4] = test system: dual reporter MDA-MB-468 cells; experiment: as above; details: no HER2 expression, 200-0.0128 ng/mL
Protocol: as §1

[5] = test system: dual reporter SK-BR-3 cells; experiment: Herceptin/PBMC killing under varied total reaction time (Example 11); details: unstimulated PBMCs 3E:1T; dox at 0, 12, 24, 48 hr; luc at 24, 48 hr
Source text: This example illustrates the benefit of using secreted inducible reporters in studying cell-mediated cytotoxicity. Since secreted reporter proteins accumulate in the media overtime, multiple measurements can be taken from the same sample well. This allows us to analyze how cell-mediated cytotoxicity changes over the total reaction time and under different reporter induction timing. […] The timing of the reporter expression phase was changed by adding doxycycline at different time points: 0, 12, 24, and 48 hours post-incubation of antibody, tumor cells, and PBMCs (dox@0, 12, 24, or 48 hr in FIG. 12A). snLuciferase was measured 24 and 48 hours after adding doxycycline (luc@t24 hr and luc@48 hr in FIG. 12A). Total reaction time was calculated as the incubation time before adding doxycycline, plus doxycycline induction time before measuring snLuciferase (indicated on top of each panel in FIG. 12A). The dose-response curves were generated from two replicates. […] If the total reaction time is too short, the detected cell-killing effect could be weak even if report expression is induced early on, because not enough time has passed for cytolysis to occur (compare luc@24 hr and dox@0 hr with others in FIGS. 12A-12B). […]

[6] = test system: dual reporter SK-BR-3 cells; experiment: Reporter induction time in NK92 ADCC (Example 18)
Protocol: The timing of the reporter expression phase was changed by adding doxycycline at different time points: −24 hours (dox induction in dual reporter SK-BR-3 cells 24 hours before co-incubating antibody/tumor cells/NK92, to mimic “constitutive” expression), and 0, 4, and 12 hours post-incubation of antibody/tumor cells/NK92. 24 hours after doxycycline induction, media was taken from each well and snLuciferase luminescence was measured using a GloMax Discover Microplate Reader, and Nikon Ellipse TE2000-U microscope was used to capture EGFP signal. The dose-response curves were generated from three replicates. Percent cell survival was defined as snLuciferase readout (RLU) at various antibody concentrations relative to the average readout with no antibody.

[7] = test system: dual reporter tumor cells (SK-BR-3, LnCaP, MDA-MB-231, MCF-7, and MDA-MB-468); experiment: Tumor antigen level and NK92 ADCC (Example 19), cell line panel; details: NK92 (CD16+) 3E:1T; 1000-0.32 ng/mL; dox t=8 hr, read t=24 hr
Protocol: (§2) After 8-hour incubation, doxycycline was added (t=8 hr) to the mixture of cells to induce expression of the dual reporters. Cell culture media was taken one day post-incubation of antibody/tumor cells/NK cells (t=24 hr), and luminescence was measured on a GloMax Discover Microplate Reader. Percent cell survival was defined as luminescence readout at various antibody concentrations relative to the average readout with no antibody. The dose-response curves were generated from three replicate measurements.
Expression of tumor antigen (HER2) was measured using FACS. […] Cells were incubated with a secondary antibody targeting anti-human IgG1 for 30 minutes at 4° C., and washed three times before analysis with Guava® easyCyte.

[8] = test system: dual reporter MDA-MB-468 cells; experiment: Tumor antigen level and NK92 ADCC (Example 19); details: no HER2 expression; control
Protocol: as §2

[9] = test system: dual reporter SK-BR-3 cells; experiment: E:T ratio and ADCC by donor PBMCs (Example 20)
Protocol: After 8-hour incubation, doxycycline was added (t=8 hr) to the mixture of cells to induce expression of the dual reporters. Cell culture media was taken one day post-incubation of antibody/tumor cells/PBMCs (t=24 hr), and luminescence was measured on a GloMax Discover Microplate Reader. Percent cell survival was defined as luminescence readout at various antibody concentrations relative to the average readout with no antibody. The dose-response curves were generated from three replicate measurements.

[10] = test system: dual reporter SK-BR-3 cells; experiment: NK92 ADCC in presence of cancer patient serum (Example 21); details: 10% FBS control vs 1/10 patient serum
[11] = test system: 3D LnCaP spheroids; experiment: NK92 ADCC in 3D tumor spheroids (Example 22); details: NK92 (CD16+) 3E:1T; 1000-0.32 ng/mL; t=24, 48, 72 hrs
Protocol: 3D tumor spheroids were generated by culturing 10,000 dual reporter LnCaP cells as constructed in Example 3 in ultra-low attachment plates for 3 days. […] After 12-hour incubation, doxycycline was added (t=12 hr) to the reaction to induce expression of the dual reporters from live tumor cells. Cell culture media sample was taken every day post-induction with doxycycline (t=24, 48, and 72 hrs), and luminescence was measured on a GloMax Discover Microplate Reader. EGFP signal was monitored at the same time points using a Nikon Ellipse TE2000-U microscope. Percent cell survival was defined as signal readout at various antibody concentrations relative to the average readout with no antibody. The dose-response curves were generated from three replicate measurements.

trastuzumab [Herceptin®]
ADCC on dual reporter SK-BR-3 cells (percent cell survival, snLuciferase) [1]: concentration-dependent ADCC
ADCC, GFP signal versus antibody concentration [2]: dose-dependent relationship between GFP signal and antibody concentration
antibody concentration-dependent effector cell killing [3]: did not mediate antibody concentration-dependent ADCC
antibody concentration-dependent effector cell killing [4]: did not mediate antibody concentration-dependent ADCC
dose-response of cell killing versus total reaction time [5]: the dose-response curves can change over time
NK cell ADCC ([6]; NK92 (CD16+) 3E:1T, 200-0.0128 ng/mL): antibody-concentration dependent manner
ADCC detected versus constitutive expression or dox@0 hr ([6]; doxycycline added at 4 hrs or 12 hrs post-incubation): could achieve stronger ADCC
NK cell ADCC, dependence on concentration and HER2 level [7]: antibody concentration-dependent and antigen expression level-dependent manner
NK cell ADCC [8]: without observed ADCC
ADCC by donor unstimulated PBMCs ([9]; 5E:1T ratio): Partial response
ADCC by donor unstimulated PBMCs ([9]; 10E:1T): all patients showed ADCC
ADCC by donor unstimulated PBMCs ([9]; 25E:1T): all patients showed ADCC
ADCC with control serum versus patient serum [10]: did not significantly differ
NK cell-mediated ADCC, snLuciferase signal [11]: antibody concentration dependent manner
